This passage reports tumor growth results from US11058725B2, “CA2 compositions and methods for tunable regulation” (Obsidian Therapeutics, Inc., priority 2019, dated 2021).

In the assay the test system is TIL-matched patient-derived xenografts (hPDX). As to the kind of experiment: Human PDX (hPDX) model with engineered matched TIL. The note with it: group 1, untransduced TIL plus hIL2 (benchmark control). The format is in vivo, NSG mice. An excerpt: To evaluate the effect of regulated mbIL15 on the anti-tumor activity of tumor infiltrating lymphocytes (TIL), a human PDX (hPDX) model is used. TIL are isolated from a patient tumor sample, for example, a head and neck tumor sample, as described in Example 6. TIL are transduced with BaEV-pseudotyped lentiviral vectors containing either the IL15-292 construct or the IL15-293 construct, as described in Example 6, or with BaEV-pseudotyped lentiviral empty vector (EV), and then optionally frozen. TIL-matched patient-derived xenografts (hPDX) from the tumor sample are established via subcutaneous implant into the right flank of NSG mice. Tumor growth is measured once or twice per week using calipers. On study start, tumors are measured, and mice are randomized and placed in cohorts based on similar mean tumor volume across all groups into new cages (N=8 for each group). The engineered matched TIL are thawed if necessary, stimulated with PMA, and then infused into the tumor-bearing mice. […]
Group 1 receives untransduced TIL supplemented with recombinant human IL2 (hIL2) as benchmark control, and group 2 receives TIL transduced with constitutive mbIL15 (IL15-292). […] Blood (50 μL) was withdrawn from submandibular veins on pre-determined days. Red blood cells are lysed, stained with fluorochrome-conjugated antibodies against human CD45, CD3 and mouse CD45, and cells are analyzed by flow cytometry. […]

Turning to “hIL2: recombinant human IL2 given with untransduced TIL as benchmark control [reference compound]”, the tumor growth entry is listed as “Delayed tumor growth”.
